{"source": "patent US20120323164A1", "about": "“PHOTODYNAMIC THERAPY WITH PHTHALOCYANINES AND RADICAL SOURCES” (Case Western Reserve University, priority 2011, published 2012)", "assay": "Qualitative solubility in organic solvents"}
{"substance": "SiPc[OCH2CH═C(CH3)(CH2)2CH═C(CH3)2]2 [Pc 302]", "values": [{"measurement": "solubility (in words)", "result": "soluble in CH2Cl2, dimethylformamide, pyridine and toluene, and insoluble in hexanes and methanol"}]}
